Test results as given in ChEMBL document CHEMBL1134302, “Cheminformatic models to predict binding affinities to human serum albumin” (J Med Chem, 2001).

Sequences of proteins named here, by UniProt entry; tags and fusion partners are left off.
UniProt P02768, whole entry: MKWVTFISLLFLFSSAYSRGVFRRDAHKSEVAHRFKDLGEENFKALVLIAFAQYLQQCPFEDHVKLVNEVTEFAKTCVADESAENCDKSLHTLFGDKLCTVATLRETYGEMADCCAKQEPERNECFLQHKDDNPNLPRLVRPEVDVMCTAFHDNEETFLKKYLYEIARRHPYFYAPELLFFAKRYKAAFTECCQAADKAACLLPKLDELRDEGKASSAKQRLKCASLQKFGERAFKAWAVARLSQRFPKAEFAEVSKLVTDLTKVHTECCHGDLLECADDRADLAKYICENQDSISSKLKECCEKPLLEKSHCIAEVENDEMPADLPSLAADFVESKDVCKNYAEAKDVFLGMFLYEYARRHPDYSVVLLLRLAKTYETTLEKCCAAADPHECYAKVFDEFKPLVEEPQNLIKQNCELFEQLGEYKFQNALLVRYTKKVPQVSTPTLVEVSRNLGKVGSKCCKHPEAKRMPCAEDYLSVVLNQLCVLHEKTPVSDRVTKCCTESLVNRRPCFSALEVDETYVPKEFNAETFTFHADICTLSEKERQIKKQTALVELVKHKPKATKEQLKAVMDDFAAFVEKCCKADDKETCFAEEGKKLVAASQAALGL

Target: Albumin (Homo sapiens, UniProt P02768)
Assay: Binding constant against human serum albumin (HSA)

Row | Structure (SMILES) | Log K'
1 | NC(=O)N1c2ccccc2C=Cc2ccccc21 [CARBAMAZEPINE] | 0.1
2 | CN(C)CCCN1c2ccccc2Sc2ccc(Cl)cc21 [CHLORPROMAZINE] | 1.1
3 | O=C1NC(=O)C(c2ccccc2)(c2ccccc2)N1 [PHENYTOIN] | 0
